Measured values published in patent US12507703B2, “Methods, devices and compositions for preserving human milk” (The Trustees of Princeton University, priority 2023, dated 2025).

tested on: lipase; experiment: Lipase/lipolysis assay (EnzChek Lipase Substrate, quenched BODIPY-fatty acid conjugate) on stored human milk; details: Biolog PM1 compound added to fresh human milk, stored 1 week at −20° C.; RFU <400 = hit; as to Lipase (RFU): test concentration or dose not given here

SMILES	Lipase (RFU)
NCCc1ccccc1 [Phenylethyl-amine]	904.3943
Nc1ncnc2c1ncn2[C@H]1C[C@H](O)[C@@H](CO)O1 [2′-Deoxy Adenosine]	947.0571

same assay, conditions: Biolog PM2a compound added to fresh human milk, stored 1 week at −20° C.; RFU <400 = hit

SMILES	Lipase (RFU)
C[C@@H](O)[C@H](O)[C@H](O)[C@@H](O)C=O [D-Fucose]	779.358
NCC(=O)O [Glycine]	1055.523
CC(=O)N[C@H]1C(O)O[C@H](CO)[C@H](O)[C@@H]1O (stereo partly drawn) [N-Acetyl-D-Galactosamine]	615.1658
O=C(O)CCCCCCCCC(=O)O [Sebacic Acid]	998.9916
CC[C@H](C)[C@H](N)C(=O)O [L-Isoleucine]	1080.411

same assay, conditions: Biolog PM5 compound added to fresh human milk, stored 1 week at −20° C.; RFU <400 = hit

SMILES	Lipase (RFU)
O=c1[nH]cnc2nc[nH]c12 [Hypoxanthine]	958.2355
Nc1ncnc2c1ncn2[C@H]1C[C@H](O)[C@@H](CO)O1 [2′-Deoxy Adenosine]	374.7843
O=C(O)c1cccnc1C(=O)O [Quinolinic Acid]	1209.412
NCC(=O)O [Glycine]	1085.013
Nc1cc[nH]c(=O)n1 [Cytosine]	991.9282
CC[C@H](C)[C@H](N)C(=O)O [L-Isoleucine]	755.2513

same assay, conditions: Food Additive Library compound added to fresh human milk, stored 1 week at −20° C., thawed at room temperature; RFU of <400 considered a hit

SMILES	Lipase (RFU)
CCOc1cc(C=O)ccc1O [Ethylvanillin]	949.6167
C/C=C/c1ccc(OC)cc1 [Trans-Anethole]	967.4121
CCOC(=O)CC(C)O (centres unmarked) [Ethyl 3-hydroxybutyrate]	923.9504
CC(=O)c1ccccc1O [2′-Hydroxyacetophenone]	1043.491
C[C@@H]1C/C=C/C=C/C=C/C=C/[C@H](O[C@@H]2O[C@H](C)[C@@H](O)[C@H](N)[C@@H]2O)C[C@@H]2O[C@](O)(C[C@@H](O)C[C@H]3O[C@@H]3/C=C/C(=O)O1)C[C@H](O)[C@H]2C(=O)O [Natamycin]	1110.851
O=C1NS(=O)(=O)c2ccccc21 [Saccharin]	1019.642
NCC(=O)O [Glycine]	886.9361
CC(=O)OCC=Cc1ccccc1 [Cinnamyl acetate]	1082.491
CC1(C)[C@@H]2CC[C@@]1(C)[C@H](O)C2 [Isoborneol]	1130.476
CC(=O)CCC(=O)O [Levulinic acid]	1112.446
CC[C@H](C)[C@H](N)C(=O)O [L-Isoleucine]	804.7165

same assay, conditions: Food-Sourced Compound Library compound added to fresh human milk, stored 1 week at −20° C., thawed at room temperature; RFU <400 considered a hit

SMILES	Lipase (RFU)
CC(C)=CCc1c(-c2ccc(O)cc2O)oc2c(CC=C(C)C)c(O)cc(O)c2c1=O [Mulberrin]	1221.946
O=C(O)C(O)Cc1ccccc1 (racemic) [DL-3-Phenyllactic acid]	814.8931
COc1ccc(-c2cc(=O)c3c(O)c(OC)c(OC)c(OC)c3o2)cc1 [Gardenin B]	1121.926
NCC(=O)O [Glycine]	862.6413
CC(=O)NCC(=O)O [N-Acetylglycine]	915.7026
N[C@@H](Cc1c[nH]c2ccc(O)cc12)C(=O)O [L-5-Hydroxytryptophan]	950.5763
CO[C@@H]1O[C@H](CO)[C@@H](O)[C@H](O)[C@H]1O [Methyl β-D-glucopyranoside]	1077.056
CCCCCCCCCCCCCCCC(=O)OC [Methyl palmitate]	907.9799
CC(O)(CCO)CC(=O)[O-].[Li+] (centres unmarked) [Mevalonic acid (lithium salt)]	1179.591
c1coc(CNc2ncnc3[nH]cnc23)c1 [Kinetin]	1069.815

same assay, conditions: approximately 2700 compound screen, human milk stored 1 week at −20° C.; hit = RFU <400

SMILES	Hit in lipase inhibition screen (in words)
Nc1ncnc2c1ncn2[C@H]1C[C@H](O)[C@@H](CO)O1 [2′-Deoxy Adenosine]	significantly inhibited lipase activity

same assay, conditions: compound added to fresh human milk, stored 1 week at −20° C., thawed at room temperature; RFU <400 considered a hit

SMILES	Lipase (RFU)
COc1ccc(/C=C/C(=O)c2c(O)cc(OC)cc2OC)cc1 [Flavokawain A]	893.4961
COc1ccc(-c2cc(=O)c3c(O)c(OC)c(O)c(OC)c3o2)cc1 [Nevadensin]	1275.947
O=C1/C(=C/c2ccc(O)cc2)Oc2cc(O)ccc21 [Hispidol]	982.9374
O=Cc1cc(O)ccc1O [2,5-Dihydroxybenzaldehyde]	921.2732
NC(CCCC(N)C(=O)O)C(=O)O (centres unmarked) [2,6-Diaminoheptanedioic acid]	846.2971
C/C=C/c1ccc(OC)cc1 [Trans-Anethole]	979.1165
CCCCCCCCCCCCCCCC(=O)NCc1ccccc1 [N-Benzylpalmitamide]	825.0433
C=C1CCC[C@]2(C)CC[C@@H](C(C)(C)O)C[C@@H]12 [Beta-Eudesmol]	776.3619
OCCc1ccccc1 [Compound 2-Phenylethanol, 2-Phenylethanol]	949.3028
O=C(O)Cc1ccccc1O [2-Hydroxyphenylacetic acid]	818.0796
O=C(O)c1ccco1 [2-Furoic acid]	1203.786
Nc1ccn([C@@H]2O[C@H](COP(=O)(O)OP(=O)(O)OP(=O)(O)O)[C@@H](O)[C@H]2O)c(=O)n1 [Cytidine-5′-triphosphate]	509.7291
C[C@@H]1CC[C@@]2(NC1)O[C@H]1C[C@H]3[C@@H]4CC=C5C[C@@H](O[C@@H]6O[C@H](CO)[C@@H](O[C@@H]7O[C@@H](C)[C@H](O)[C@@H](O)[C@H]7O)[C@H](O)[C@H]6O[C@@H]6O[C@@H](C)[C@H](O)[C@@H](O)[C@H]6O)CC[C@]5(C)[C@H]4CC[C@]3(C)[C@H]1[C@@H]2C [Solamargine]	912.2193
C[C@H]1[C@H](C)CC[C@]2(C(=O)O)CC[C@]3(C)C(=CC[C@@H]4[C@@]5(C)C[C@@H](O)[C@H](O)[C@@](C)(CO)[C@@H]5[C@H](O)C[C@]43C)[C@H]12 [Madecassic acid]	813.8427
CC1=NCCc2c1[nH]c1cc(O)ccc21.Cl [Harmalol (hydrochloride)]	757.8125
COc1ccc(CC(=O)O)cc1 [2-(4-Methoxyphenyl)acetic acid]	919.1732
CCCCCC[C@@H](O)C/C=C\CCCCCCCC(=O)O [Ricinoleic acid]	1165.621
CC(=O)NCCc1c[nH]c2ccc(O)cc12 [N-Acetyl-5-hydroxytryptamine]	1040.161
COc1ccc(-c2cc(=O)c3c(O)cc(O[C@@H]4O[C@H](CO)[C@@H](O)[C@H](O)[C@H]4O)cc3o2)cc1O [Diosmetin-7-O-β-D-glucopyranoside]	1122.568
N[C@@H](CCSC[C@H](N)C(=O)O)C(=O)O [L-Cystathionine]	1266.889
C[C@]12CCC(=O)C=C1CC[C@@H]1[C@@H]2[C@@H](O)C[C@@]2(C)[C@H]1CC[C@]2(O)C(=O)CO [Hydrocortisone]	893.9008
N[C@@H](Cc1cc(I)c(Oc2ccc(O)c(I)c2)c(I)c1)C(=O)O [Liothyronine (sodium)]	679.7045
Cn1cnc(C[C@H](N)C(=O)O)c1 [Compound 1-Methyl-L-histidine, 1-Methyl-L-histidine]	1205.202
CC(=O)N[C@@H](CC(N)=O)C(=O)O	1045.166
COc1ccc2c(c1OC)O[C@H]1c3ccc(O)cc3OC[C@@H]21 [Methylnissolin]	940.1869
Cc1ccc(-c2ccccc2)cc1 [Compound 4-Methylbiphenyl, 4-Methylbiphenyl]	986.6554
Nc1ncnc2c1ncn2[C@H]1C[C@H](O)[C@@H](COP(=O)([O-])OP(=O)([O-])OP(=O)([O-])O)O1.[Na+].[Na+].[Na+]	787.6266
CCCCCCCC/C=C\CCCCCCCCCCCC(=O)O [Erucic acid]	1149.145
CCOC(=O)c1cc(O)c(O)c(O)c1 [Ethyl gallate]	1017.803
CC[C@H](C)[C@H](N)C(=O)O [L-Isoleucine]	947.064
